US20220288169A1, “COMPOSITIONS AND METHODS FOR THE TREATMENT AND PREVENTION OF HYPOGLYCEMIC COMPLICATIONS” (The Board of Supervisors of Louisiana State University and …, priority 2019, published 2022)
Like-named read-outs stand apart in the source and are kept apart here.

Conditions: mean (SD)

Substance: insulin
- mean serum insulin levels (male Ad-lib mice, first day of refeeding, 60 min after IP insulin (mean dose 1.9 U/kg)): 11.9 ng/mL
- mean serum insulin levels (male Ad-lib mice, fourth day of refeeding, 60 min after IP insulin (mean dose 2.3 U/kg)): 11.0 ng/mL
- mean serum insulin levels (male Ad-lib mice, second day of refeeding, 60 min after IP insulin (mean dose 2.0 U/kg)): 10.1 ng/mL
- mean serum insulin levels (male CR mice, first day of refeeding, 60 min after IP insulin (mean dose 1.6 U/kg)): 5.9 ng/mL
- mean serum insulin levels (male CR mice, fourth day of refeeding, 60 min after IP insulin (mean dose 2.0 U/kg)): 8.7 ng/mL
- mean serum insulin levels (male CR mice, second day of refeeding, 60 min after IP insulin (mean dose 1.6 U/kg)): 6.6 ng/mL
